Test results published in paper PMC10009755, “Discovery and Characterization of BAY-805, a Potent and Selective Inhibitor of Ubiquitin-Specific Protease USP21” (Journal of Medicinal Chemistry, 2023).

Protein sequences, listed by entry. Tags and fused reporters are not part of them. Lines headed by an entry give the natural chain unless they say otherwise; changes in a name come on top. Residues count along the entry.
UniProt P30291: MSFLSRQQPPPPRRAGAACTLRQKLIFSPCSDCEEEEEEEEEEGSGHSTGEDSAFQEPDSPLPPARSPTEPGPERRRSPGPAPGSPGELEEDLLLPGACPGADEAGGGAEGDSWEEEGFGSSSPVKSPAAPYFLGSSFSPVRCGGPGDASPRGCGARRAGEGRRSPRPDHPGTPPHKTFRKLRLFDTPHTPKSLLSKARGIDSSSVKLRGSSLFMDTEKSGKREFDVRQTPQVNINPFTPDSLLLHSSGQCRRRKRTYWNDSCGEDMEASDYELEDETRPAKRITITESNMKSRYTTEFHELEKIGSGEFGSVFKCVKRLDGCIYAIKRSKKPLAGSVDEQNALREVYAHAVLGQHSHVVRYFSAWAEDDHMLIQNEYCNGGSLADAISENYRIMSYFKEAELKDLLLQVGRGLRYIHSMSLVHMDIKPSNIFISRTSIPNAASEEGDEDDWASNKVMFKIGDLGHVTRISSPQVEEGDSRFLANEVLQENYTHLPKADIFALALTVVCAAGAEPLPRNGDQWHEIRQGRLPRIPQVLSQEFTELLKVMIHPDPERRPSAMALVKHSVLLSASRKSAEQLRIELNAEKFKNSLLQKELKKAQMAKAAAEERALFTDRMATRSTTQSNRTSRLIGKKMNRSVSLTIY
UniProt P35125: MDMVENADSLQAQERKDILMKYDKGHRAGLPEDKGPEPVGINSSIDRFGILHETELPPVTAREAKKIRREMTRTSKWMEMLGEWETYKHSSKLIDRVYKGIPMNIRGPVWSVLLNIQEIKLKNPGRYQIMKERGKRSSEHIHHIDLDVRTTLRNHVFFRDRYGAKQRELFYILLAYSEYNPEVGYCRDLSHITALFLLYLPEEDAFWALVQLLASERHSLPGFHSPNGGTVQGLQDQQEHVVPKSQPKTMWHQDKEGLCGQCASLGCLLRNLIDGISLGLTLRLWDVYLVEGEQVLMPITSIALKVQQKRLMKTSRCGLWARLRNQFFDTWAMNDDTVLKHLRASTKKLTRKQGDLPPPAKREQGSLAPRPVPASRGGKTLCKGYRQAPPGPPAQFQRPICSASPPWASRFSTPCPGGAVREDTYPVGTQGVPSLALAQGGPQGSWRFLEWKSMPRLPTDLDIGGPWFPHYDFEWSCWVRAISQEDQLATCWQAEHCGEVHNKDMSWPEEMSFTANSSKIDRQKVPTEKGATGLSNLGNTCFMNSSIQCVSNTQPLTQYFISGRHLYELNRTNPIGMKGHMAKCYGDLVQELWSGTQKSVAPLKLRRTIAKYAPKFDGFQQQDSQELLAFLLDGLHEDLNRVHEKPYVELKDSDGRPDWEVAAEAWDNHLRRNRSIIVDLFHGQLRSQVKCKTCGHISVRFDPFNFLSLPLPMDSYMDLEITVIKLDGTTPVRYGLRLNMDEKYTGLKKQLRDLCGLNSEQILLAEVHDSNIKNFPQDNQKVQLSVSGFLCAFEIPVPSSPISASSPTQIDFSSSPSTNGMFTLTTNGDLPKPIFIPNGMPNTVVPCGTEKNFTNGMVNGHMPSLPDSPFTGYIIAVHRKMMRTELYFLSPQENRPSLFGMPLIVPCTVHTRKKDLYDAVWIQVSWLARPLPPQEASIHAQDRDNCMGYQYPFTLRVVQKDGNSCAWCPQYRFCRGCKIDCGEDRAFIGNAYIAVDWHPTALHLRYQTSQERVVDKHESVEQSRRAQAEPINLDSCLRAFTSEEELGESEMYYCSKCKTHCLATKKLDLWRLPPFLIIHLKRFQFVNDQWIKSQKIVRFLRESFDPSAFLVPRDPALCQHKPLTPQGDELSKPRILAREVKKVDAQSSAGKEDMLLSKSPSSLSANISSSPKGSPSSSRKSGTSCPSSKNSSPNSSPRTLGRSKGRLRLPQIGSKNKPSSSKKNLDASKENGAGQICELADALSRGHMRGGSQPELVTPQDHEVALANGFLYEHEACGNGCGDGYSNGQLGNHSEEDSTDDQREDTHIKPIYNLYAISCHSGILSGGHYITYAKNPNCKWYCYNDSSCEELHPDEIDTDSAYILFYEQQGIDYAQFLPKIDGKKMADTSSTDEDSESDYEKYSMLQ
UniProt Q9NRM7: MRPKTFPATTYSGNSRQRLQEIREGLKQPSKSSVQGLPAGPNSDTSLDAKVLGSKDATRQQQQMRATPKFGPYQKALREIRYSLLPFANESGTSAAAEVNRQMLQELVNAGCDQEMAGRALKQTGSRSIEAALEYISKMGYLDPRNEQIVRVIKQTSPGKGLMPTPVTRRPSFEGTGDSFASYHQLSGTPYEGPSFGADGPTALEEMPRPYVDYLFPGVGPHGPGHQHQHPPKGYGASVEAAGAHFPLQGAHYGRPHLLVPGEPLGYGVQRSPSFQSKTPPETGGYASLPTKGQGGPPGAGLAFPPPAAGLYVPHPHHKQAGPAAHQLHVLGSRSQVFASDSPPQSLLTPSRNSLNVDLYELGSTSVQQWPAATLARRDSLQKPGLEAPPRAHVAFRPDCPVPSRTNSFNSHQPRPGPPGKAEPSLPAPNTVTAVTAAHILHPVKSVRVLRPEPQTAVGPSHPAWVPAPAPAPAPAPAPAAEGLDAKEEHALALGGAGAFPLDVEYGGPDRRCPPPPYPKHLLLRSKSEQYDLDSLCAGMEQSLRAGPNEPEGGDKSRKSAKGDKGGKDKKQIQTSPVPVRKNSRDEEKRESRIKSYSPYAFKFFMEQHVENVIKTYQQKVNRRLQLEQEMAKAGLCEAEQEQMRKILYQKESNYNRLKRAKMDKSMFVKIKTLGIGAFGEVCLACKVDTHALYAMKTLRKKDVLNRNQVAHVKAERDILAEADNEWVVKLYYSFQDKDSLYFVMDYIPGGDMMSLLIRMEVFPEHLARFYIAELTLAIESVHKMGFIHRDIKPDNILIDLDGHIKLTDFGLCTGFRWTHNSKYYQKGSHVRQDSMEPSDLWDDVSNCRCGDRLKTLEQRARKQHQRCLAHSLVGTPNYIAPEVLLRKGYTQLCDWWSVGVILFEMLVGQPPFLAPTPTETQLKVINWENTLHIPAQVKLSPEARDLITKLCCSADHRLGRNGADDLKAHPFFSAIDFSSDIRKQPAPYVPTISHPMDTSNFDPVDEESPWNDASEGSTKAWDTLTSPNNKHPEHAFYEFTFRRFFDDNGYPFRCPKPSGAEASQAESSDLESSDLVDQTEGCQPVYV
UniProt P30542, whole entry: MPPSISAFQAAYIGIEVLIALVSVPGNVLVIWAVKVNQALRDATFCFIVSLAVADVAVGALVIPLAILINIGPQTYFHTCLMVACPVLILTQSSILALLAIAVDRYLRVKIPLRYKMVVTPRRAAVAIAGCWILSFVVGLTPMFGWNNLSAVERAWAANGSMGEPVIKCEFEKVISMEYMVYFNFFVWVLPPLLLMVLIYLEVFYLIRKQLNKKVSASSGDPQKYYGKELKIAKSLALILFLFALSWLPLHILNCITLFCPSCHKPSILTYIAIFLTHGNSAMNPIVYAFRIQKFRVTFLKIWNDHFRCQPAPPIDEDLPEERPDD
UniProt P10721, 26-976: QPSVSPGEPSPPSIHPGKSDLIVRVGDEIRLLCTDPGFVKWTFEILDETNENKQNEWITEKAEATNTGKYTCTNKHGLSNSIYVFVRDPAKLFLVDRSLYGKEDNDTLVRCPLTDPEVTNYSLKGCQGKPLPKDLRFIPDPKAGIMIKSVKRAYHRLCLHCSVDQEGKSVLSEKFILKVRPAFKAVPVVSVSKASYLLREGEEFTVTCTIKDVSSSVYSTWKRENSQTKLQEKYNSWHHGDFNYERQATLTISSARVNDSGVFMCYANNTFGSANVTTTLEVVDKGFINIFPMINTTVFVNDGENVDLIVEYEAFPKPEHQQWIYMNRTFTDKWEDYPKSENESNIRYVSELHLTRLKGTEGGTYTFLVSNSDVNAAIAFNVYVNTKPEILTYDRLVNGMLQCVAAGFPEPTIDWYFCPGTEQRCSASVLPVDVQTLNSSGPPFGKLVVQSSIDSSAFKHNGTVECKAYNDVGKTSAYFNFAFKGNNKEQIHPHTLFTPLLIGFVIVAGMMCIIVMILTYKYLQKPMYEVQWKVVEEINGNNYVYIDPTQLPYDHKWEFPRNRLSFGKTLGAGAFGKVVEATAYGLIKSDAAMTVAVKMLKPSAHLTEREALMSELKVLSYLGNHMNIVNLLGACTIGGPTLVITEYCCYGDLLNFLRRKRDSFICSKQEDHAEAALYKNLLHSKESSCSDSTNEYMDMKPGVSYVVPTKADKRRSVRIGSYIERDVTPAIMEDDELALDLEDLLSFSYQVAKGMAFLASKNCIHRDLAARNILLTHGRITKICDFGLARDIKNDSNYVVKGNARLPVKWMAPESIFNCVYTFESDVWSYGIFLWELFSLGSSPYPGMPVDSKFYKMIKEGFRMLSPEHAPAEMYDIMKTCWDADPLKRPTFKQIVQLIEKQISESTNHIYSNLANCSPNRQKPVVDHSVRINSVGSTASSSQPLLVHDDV
UniProt P54578: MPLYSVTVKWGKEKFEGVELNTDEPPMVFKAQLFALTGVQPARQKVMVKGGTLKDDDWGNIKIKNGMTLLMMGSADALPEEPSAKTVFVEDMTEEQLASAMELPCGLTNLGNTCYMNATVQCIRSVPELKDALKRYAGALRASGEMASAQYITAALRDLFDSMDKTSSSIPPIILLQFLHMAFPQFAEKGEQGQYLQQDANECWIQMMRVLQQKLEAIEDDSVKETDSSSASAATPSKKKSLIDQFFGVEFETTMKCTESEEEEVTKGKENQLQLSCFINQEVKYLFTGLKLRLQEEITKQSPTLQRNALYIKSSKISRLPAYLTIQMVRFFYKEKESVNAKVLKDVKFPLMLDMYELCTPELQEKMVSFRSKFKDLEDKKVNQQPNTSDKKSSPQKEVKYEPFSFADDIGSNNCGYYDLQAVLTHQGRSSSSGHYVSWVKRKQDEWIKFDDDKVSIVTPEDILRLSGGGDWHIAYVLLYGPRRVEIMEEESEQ
UniProt P36888, 27-993: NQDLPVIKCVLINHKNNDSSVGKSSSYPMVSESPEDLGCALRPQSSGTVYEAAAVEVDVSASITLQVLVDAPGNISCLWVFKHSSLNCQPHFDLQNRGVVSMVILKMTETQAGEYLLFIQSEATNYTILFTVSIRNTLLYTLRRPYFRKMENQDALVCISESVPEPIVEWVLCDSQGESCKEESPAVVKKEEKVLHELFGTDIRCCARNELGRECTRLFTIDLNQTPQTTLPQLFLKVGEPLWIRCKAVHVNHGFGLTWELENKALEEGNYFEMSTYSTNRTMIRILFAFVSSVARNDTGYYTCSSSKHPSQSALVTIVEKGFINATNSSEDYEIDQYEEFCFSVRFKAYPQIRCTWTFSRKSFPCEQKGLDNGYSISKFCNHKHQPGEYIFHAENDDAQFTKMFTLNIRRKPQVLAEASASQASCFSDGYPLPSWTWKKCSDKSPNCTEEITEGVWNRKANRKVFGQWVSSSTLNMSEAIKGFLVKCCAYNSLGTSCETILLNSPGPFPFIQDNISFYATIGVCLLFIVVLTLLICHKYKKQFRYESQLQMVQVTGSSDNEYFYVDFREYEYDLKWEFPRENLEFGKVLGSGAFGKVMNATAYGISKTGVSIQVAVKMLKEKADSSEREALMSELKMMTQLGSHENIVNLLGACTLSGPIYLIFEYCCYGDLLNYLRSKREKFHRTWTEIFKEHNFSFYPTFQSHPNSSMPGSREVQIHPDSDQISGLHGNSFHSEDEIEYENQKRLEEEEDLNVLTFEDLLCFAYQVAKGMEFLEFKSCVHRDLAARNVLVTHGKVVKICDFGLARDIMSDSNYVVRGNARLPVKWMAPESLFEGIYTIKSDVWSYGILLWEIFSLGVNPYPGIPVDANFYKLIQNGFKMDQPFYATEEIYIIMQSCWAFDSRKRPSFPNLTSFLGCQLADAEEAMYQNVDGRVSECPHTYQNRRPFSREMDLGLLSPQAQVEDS
UniProt P24557: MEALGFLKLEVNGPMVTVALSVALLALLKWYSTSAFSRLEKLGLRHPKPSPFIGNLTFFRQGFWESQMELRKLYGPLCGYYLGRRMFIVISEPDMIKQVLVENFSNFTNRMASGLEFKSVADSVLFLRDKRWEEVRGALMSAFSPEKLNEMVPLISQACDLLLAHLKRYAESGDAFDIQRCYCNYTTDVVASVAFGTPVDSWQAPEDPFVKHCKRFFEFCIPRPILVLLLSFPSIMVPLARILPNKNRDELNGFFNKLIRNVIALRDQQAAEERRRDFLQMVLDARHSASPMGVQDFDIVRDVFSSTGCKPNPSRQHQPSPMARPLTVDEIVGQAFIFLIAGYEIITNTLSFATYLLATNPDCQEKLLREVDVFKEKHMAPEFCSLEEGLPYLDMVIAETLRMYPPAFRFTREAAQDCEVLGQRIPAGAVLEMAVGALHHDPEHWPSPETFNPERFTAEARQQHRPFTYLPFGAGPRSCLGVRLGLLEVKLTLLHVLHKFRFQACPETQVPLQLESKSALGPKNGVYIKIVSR

Assays:
[1] = target: MAP4K4(h) (Homo sapiens, UniProt O95819); assay: biochemical
[2] = target: PDGFRalpha(h) (Homo sapiens, UniProt P16234); assay: biochemical
[3] = target: Histamine H2 (Homo sapiens, UniProt P25021); assay: biochemical; settings: read-out: % Inh.
[4] = target: WEE1(h) (Homo sapiens, UniProt P30291); assay: biochemical
[5] = target: USP6 (Homo sapiens, UniProt P35125); assay: biochemical; settings: read-out: Activity (% Control)
[6] = target: STK32A(h) (Homo sapiens, UniProt Q8WU08); assay: biochemical
[7] = target: STK25(h) (Homo sapiens, UniProt O00506); assay: biochemical
[8] = target: USP36 (Homo sapiens, UniProt Q9P275); assay: biochemical; settings: read-out: Activity (% Control)
[9] = target: Cyclooxygenase COX-1 (Homo sapiens, UniProt P23219); assay: biochemical; settings: read-out: % Inh.
[10] = target: IGF-1R(h), activated (Homo sapiens, UniProt P08069); assay: biochemical
[11] = target: TSSK4(h) (Homo sapiens, UniProt Q6SA08); assay: biochemical
[12] = target: LATS2(h) (Homo sapiens, UniProt Q9NRM7); assay: biochemical
[13] = target: Pim-2(h) (Homo sapiens, UniProt Q9P1W9); assay: biochemical
[14] = target: GRK1(h) (Homo sapiens, UniProt Q15835); assay: biochemical
[15] = target: FAK(h) (Homo sapiens, UniProt Q05397); assay: biochemical
[16] = target: SBK1(h) (Homo sapiens, UniProt Q52WX2); assay: biochemical
[17] = target: Adenosine A1 (Homo sapiens, UniProt P30542); assay: biochemical; settings: read-out: % Inh.
[18] = target: SIK3(h) (Homo sapiens, UniProt Q9Y2K2); assay: biochemical
[19] = target: Plk4(h) (Homo sapiens, UniProt O00444); assay: biochemical
[20] = target: cKit(h) (Homo sapiens, UniProt P10721); assay: biochemical
[21] = target: HIPK3(h) (Homo sapiens, UniProt Q9H422); assay: biochemical
[22] = target: DYRK3(h) (Homo sapiens, UniProt O43781); assay: biochemical
[23] = target: USP14 (Proteasome-VS @ Kd) (Homo sapiens, UniProt P54578); assay: biochemical; settings: read-out: Activity (% Control)
[24] = target: CDKL3(h) (Homo sapiens, UniProt Q8IVW4); assay: biochemical
[25] = target: Flt3(h) (Homo sapiens, UniProt P36888); assay: biochemical
[26] = target: USP4 (Homo sapiens, UniProt Q13107); assay: biochemical; settings: read-out: Activity (% Control)
[27] = target: mTOR FKBP12(h) (Homo sapiens, UniProt P42345); assay: biochemical
[28] = target: HIPK1(h) (Homo sapiens, UniProt Q86Z02); assay: biochemical
[29] = tested on: panel of 10 individual USPs; assay: SGC USP selectivity screen, whole panel; format: biochemical
[30] = target: CLK3(h) (Homo sapiens, UniProt P49761); assay: biochemical
[31] = target: PKCbetaII(h) (Homo sapiens, UniProt P05771); assay: biochemical
[32] = target: USP5 (+Ubiquitin @ Bmax) (Homo sapiens, UniProt P45974); assay: biochemical; settings: read-out: Activity (% Control)
[33] = target: MEKK3(h) (Homo sapiens, UniProt Q99759); assay: biochemical
[34] = target: MST2(h) (Homo sapiens, UniProt Q13188); assay: biochemical
[35] = target: TAO2(h) (Homo sapiens, UniProt Q9UL54); assay: biochemical
[36] = target: SRPK1(h) (Homo sapiens, UniProt Q96SB4); assay: biochemical
[37] = target: NEK6(h) (Homo sapiens, UniProt Q9HC98); assay: biochemical
[38] = target: Thromboxane Synthase (Homo sapiens, UniProt P24557); assay: biochemical; settings: read-out: % Inh.
[39] = target: MEK1(h) (Homo sapiens, UniProt Q02750); assay: biochemical
[40] = target: Cyclooxygenase COX-2 (Homo sapiens, UniProt P35354); assay: biochemical; settings: read-out: % Inh.
[41] = target: MYLK2(h) (Homo sapiens, UniProt Q9H1R3); assay: biochemical

CC(C)C[C@H](NC(=O)C1(C(F)(F)F)CCCCC1)C(=O)Nc1nnc(Cc2ccc(C#N)cc2)s1 [Compound 22, CC(C)C[C@H](NC(=O)C1(CCCCC1)C(F)(F)F)C(=O)Nc2nnc(Cc3ccc(cc3)C#N)s2]
inhibition at 10 µM [1]: 8.87% | inhibition at 10 µM [2]: 29.9% | inhibition at 10 µM [3]: 0% | inhibition at 10 µM [4]: -10.9% | remaining activity at 1 µM [5]: 108% | remaining activity at 10 µM [5]: 105% | inhibition at 10 µM [6]: 0.29% | inhibition at 10 µM [7]: 20% | remaining activity at 1 µM [8]: 100% | remaining activity at 10 µM [8]: 95% | inhibition at 10 µM [9]: 3% | inhibition at 10 µM [10]: 3.24% | inhibition at 10 µM [11]: 9.24% | inhibition at 10 µM [12]: 4.04% | inhibition at 10 µM [13]: -2.68% | inhibition at 10 µM [14]: -1.62% | inhibition at 10 µM [15]: -23.6% | inhibition at 10 µM [16]: 9.66% | inhibition at 10 µM [17]: -2% | inhibition at 10 µM [18]: 1.46% | inhibition at 10 µM [19]: -23.2% | inhibition at 10 µM [20]: -4.4% | inhibition at 10 µM [21]: -2.65% | inhibition at 10 µM [22]: -6.72% | remaining activity at 1 µM [23]: 100% | remaining activity at 10 µM [23]: 112% | inhibition at 10 µM [24]: 0.86% | inhibition at 10 µM [25]: 8.17% | remaining activity at 10 µM [26]: 98% | remaining activity at 50 µM [26]: 91% | inhibition at 10 µM [27]: 3% | inhibition at 10 µM [28]: 11.9% | effect on the activity of any tested DUB target [29]: did not show a significant effect | inhibition at 10 µM [30]: -16.1% | inhibition at 10 µM [31]: 0.91% | remaining activity at 1 µM [32]: 96% | remaining activity at 10 µM [32]: 101% | inhibition at 10 µM [33]: 4.03% | inhibition at 10 µM [34]: -10.3% | inhibition at 10 µM [35]: 2.21% | inhibition at 10 µM [36]: -6.69% | inhibition at 10 µM [37]: -8.5% | inhibition at 10 µM [38]: 15% | inhibition at 10 µM [39]: 1.44% | inhibition at 10 µM [40]: 5% | inhibition at 10 µM [41]: 2.95%

CC(C)C[C@@H](NC(=O)C1(C(F)(F)F)CCCCC1)C(=O)Nc1nnc(Cc2ccc(C#N)cc2)s1 [Compound 21, N-[(1R)-1-[[5-[(4-Cyanophenyl)methyl]-1,3,4-thiadiazol-2-yl]carbamoyl]-3-methyl-butyl]-1-(trifluoromethyl)cyclohexanecarboxamide]
inhibition at 10 µM [1]: 8.2% | inhibition at 10 µM [2]: 16.5% | inhibition at 10 µM [3]: -16% | inhibition at 10 µM [4]: -6.82% | remaining activity at 1 µM [5]: 106% | remaining activity at 10 µM [5]: 102% | inhibition at 10 µM [6]: 1.52% | inhibition at 10 µM [7]: 12.2% | remaining activity at 1 µM [8]: 110% | remaining activity at 10 µM [8]: 101% | inhibition at 10 µM [9]: -2% | inhibition at 10 µM [10]: -2.37% | inhibition at 10 µM [11]: 27.8% | inhibition at 10 µM [12]: 15.2% | inhibition at 10 µM [13]: 5.57% | inhibition at 10 µM [14]: -7.18% | inhibition at 10 µM [15]: -2.96% | inhibition at 10 µM [16]: 17.3% | inhibition at 10 µM [17]: 4% | inhibition at 10 µM [18]: 9.94% | inhibition at 10 µM [19]: -10.8% | inhibition at 10 µM [20]: -0.55% | inhibition at 10 µM [21]: 2.03% | inhibition at 10 µM [22]: -6.78% | remaining activity at 1 µM [23]: 103% | remaining activity at 10 µM [23]: 98% | inhibition at 10 µM [24]: -1.25% | inhibition at 10 µM [25]: 0.65% | remaining activity at 10 µM [26]: 98% | remaining activity at 50 µM [26]: 93% | inhibition at 10 µM [27]: 2.46% | inhibition at 10 µM [28]: 8.51% | inhibition for seven other DUBs of the panel [29]: less than 50% | inhibition at 10 µM [30]: -15.7% | inhibition at 10 µM [31]: 0.32% | remaining activity at 1 µM [32]: 93% | remaining activity at 10 µM [32]: 101% | inhibition at 10 µM [33]: 1.98% | inhibition at 10 µM [34]: 4.72% | inhibition at 10 µM [35]: -3.58% | inhibition at 10 µM [36]: -23.2% | inhibition at 10 µM [37]: -4.86% | inhibition at 10 µM [38]: -1% | inhibition at 10 µM [39]: -0.02% | inhibition at 10 µM [40]: 2% | inhibition at 10 µM [41]: 4.38%
